Protein sequences, listed by entry. Tags and fused reporters are not part of them.
UniProt Q9H8M2, whole entry: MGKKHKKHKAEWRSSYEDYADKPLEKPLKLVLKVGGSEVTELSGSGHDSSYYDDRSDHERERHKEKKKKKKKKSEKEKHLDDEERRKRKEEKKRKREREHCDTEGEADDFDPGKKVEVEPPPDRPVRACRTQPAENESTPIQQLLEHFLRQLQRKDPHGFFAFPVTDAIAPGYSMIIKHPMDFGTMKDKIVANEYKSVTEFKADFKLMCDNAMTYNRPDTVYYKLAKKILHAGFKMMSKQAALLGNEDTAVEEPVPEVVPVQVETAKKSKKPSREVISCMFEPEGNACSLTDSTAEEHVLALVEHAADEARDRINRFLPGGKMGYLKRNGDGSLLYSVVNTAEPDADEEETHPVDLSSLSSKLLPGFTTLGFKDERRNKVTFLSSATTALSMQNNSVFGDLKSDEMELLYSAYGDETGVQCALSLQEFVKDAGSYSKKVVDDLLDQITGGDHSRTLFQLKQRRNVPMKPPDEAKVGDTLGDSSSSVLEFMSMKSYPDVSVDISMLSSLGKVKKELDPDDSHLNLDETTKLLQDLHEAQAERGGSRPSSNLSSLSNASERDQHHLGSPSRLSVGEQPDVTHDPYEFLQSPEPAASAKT

According to patent US11414416B1, “Compounds and uses thereof” (Foghorn Therapeutics Inc., priority 2019, dated 2022):

Molecular target: Nanoluciferase-BRD9 fusion protein (Homo sapiens (Human), UniProt Q9H8M2)
Test: SYO1 BRD9 NanoLuc degradation assay
Conditions: read-out: SYO1 BRD9-NanoLuc degradation IC50, SYO-1 cells expressing 3×FLAG-NLuc-BRD9, 6 hours

Row | Compound | pIC50 (Table 5C) | pIC50 (Table 5B)
1 | COc1cc(-c2cn(C)c(=O)c3[nH]ccc23)cc(OC)c1CN1CCC2(CC1)CN(c1ccc3c(c1)C(=O)N(C1CCC(=O)NC1=O)C3)C2 (stereo not shown) | > 8.00 | 
2 | COc1cc(-c2cn(C)c(=O)c3cnccc23)cc(OC)c1CN(C)CCOCCn1cc(COC2CCN(c3ccc4c(c3)C(=O)N(C3CCC(=O)NC3=O)C4=O)CC2)nn1 (stereo not shown) |  | 6.00 to 7.00
3 | COc1cc(-c2cc(C)c(=O)n(C)c2)cc(OC)c1CN1CC(F)(C#Cc2ccc3c(c2)C(=O)N(C2CCC(=O)NC2=O)C3)C1 (stereo not shown) | > 8.00 | 
4 | COc1cc(-c2cn(C)c(=O)c3cnccc23)cc(OC)c1CN(C)CCn1cc(COc2ccc3c(c2)C(=O)N(C2CCC(=O)NC2=O)C3=O)nn1 (stereo not shown) |  | > 8.00

pIC50: −log10 of the molar value. Read-outs that look alike come from different tables or passages of the source.
